{"source": "patent US9334242B2", "about": "“Compounds for treatment of cancer” (GTX, INC., priority 2010, dated 2016)", "system": "T1, tubulin colchicine binding site", "T1 construct": "[…]; other: SPA", "assay": "[3H]-colchicine competition-binding scintillation proximity assay", "settings": "SPA", "data": [{"compound": "COc1ccc(-c2nc(C(=O)c3ccc(F)cc3)c[nH]2)cc1", "note": "[12cb, (4-fluorophenyl)(2-(4-methoxyphenyl)-1H-imidazol-4-yl)methanone]", "values": [{"measurement": "competition for the tubulin colchicine binding site (in words)", "value": "competitively bound"}]}]}
